Consider one compound from article PMC8192900 (2021).

Protein sequences, listed by entry. Tags and fused reporters are not part of them.
UniProt P23975, whole entry: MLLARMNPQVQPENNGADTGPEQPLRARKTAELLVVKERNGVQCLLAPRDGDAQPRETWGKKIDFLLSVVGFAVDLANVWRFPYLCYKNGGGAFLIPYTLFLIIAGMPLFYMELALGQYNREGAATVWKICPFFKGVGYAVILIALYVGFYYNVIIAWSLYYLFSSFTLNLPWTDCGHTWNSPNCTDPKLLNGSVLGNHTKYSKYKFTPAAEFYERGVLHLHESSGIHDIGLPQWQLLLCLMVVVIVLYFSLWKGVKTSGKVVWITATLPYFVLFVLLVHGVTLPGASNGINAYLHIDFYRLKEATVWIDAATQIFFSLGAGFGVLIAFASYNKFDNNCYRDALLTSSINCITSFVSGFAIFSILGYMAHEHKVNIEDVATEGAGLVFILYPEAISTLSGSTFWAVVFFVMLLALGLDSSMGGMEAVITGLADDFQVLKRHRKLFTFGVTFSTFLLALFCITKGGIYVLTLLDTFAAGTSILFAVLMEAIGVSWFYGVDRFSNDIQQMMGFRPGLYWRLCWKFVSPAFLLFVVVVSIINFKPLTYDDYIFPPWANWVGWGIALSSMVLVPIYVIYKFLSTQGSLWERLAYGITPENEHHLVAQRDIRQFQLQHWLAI

The experiment addresses human norepinephrine transporter (NET, SLC6A2) (Homo sapiens, UniProt P23975). Description: TRACT assay: inhibitory potency of NET inhibitors (enhancement of substrate-induced response). The class given is cell-based. Conditions: +dox JumpIn-NET cells, 1 h pretreatment, stimulated with 1 µM NE (EC20).

As for `CC(NC(C)(C)C)C(=O)c1cccc(Cl)c1.Cl` (stereo not shown) [Bupropion, bupropion hydrochloride], the “Inhibitory potency pIC50, TRACT assay” value turned out to be 4.9 ± 0.1.
